What is called Emax is the greatest response seen or fitted, relative to the assay's reference.

Protein sequences, listed by entry. Tags and fused reporters are not part of them.
UniProt P21728, whole entry: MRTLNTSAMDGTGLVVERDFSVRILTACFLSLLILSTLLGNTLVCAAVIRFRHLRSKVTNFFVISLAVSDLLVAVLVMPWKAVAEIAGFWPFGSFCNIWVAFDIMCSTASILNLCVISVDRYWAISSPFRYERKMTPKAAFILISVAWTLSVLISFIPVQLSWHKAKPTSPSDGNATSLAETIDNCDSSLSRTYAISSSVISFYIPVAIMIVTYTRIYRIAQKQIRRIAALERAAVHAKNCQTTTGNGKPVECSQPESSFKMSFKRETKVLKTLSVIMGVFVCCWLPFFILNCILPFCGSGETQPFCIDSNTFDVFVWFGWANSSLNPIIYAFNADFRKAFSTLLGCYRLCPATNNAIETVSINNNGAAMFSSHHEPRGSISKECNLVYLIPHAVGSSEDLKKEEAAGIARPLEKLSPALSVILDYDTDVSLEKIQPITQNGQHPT

We go through one compound from ChEMBL document CHEMBL4257582, “Discovery and Lead Optimization of Atropisomer D1 Agonists with Reduced Desensitization” (J Med Chem, 2018).

For this experiment, the target named is D(1A) dopamine receptor (Homo sapiens, UniProt P21728). Put plainly: Intrinsic agonist activity at human dopamine D1 receptor expressed in HEK293T cells assessed as induction of cAMP levels at […] after 30 mins by HTRF assay relative to dopamine. It counts as functional, cell-based. Put shortly:
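HEK293 cells overexpressing hD1R, no exogenous dopamine. cAMP response converted to nM cAMP with a standard curve, then normalized to the dopamine control. Geometric mean, N ≥ 3 unless otherwise specified.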
(cAMP levels reflect the balance of adenylyl cyclase and phosphodiesterase activity.)

Regarding `Cc1cc(Oc2nccc3occc23)ccc1-c1c(C)cnn1C(C)(C)C`, the Emax is 18%.
